In general, Ki refers to a measure of affinity in units of concentration, obtained from inhibition or displacement. The low end stands for tighter binding, the high end for weaker binding.

Chains of the proteins cited; added tags and fusions are not shown.
UniProt P0DMS8, whole entry: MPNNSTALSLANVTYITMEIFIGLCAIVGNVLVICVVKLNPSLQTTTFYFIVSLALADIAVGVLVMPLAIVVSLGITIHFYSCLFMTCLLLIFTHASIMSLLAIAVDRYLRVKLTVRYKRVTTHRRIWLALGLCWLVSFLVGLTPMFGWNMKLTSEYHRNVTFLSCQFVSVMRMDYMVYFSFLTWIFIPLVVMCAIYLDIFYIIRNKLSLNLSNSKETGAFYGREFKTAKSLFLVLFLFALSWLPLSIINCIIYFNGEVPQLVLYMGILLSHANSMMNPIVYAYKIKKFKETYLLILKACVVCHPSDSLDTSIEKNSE

The values below come from BindingDB's records for doi:10.1124/mol.61.2.415 (University of Ferrara, 2002).

In the test the target is Adenosine receptor A3 (Homo sapiens, UniProt P0DMS8).

Where “and” joins values, the source holds several entries; their conditions need not be identical. Equal values may be shown once.

On to `CCCn1cc2c(nc(NC(=O)Nc3ccc(OC)cc3)n3nc(-c4ccco4)nc23)n1` [J1.251.181G], for which the Ki was 2.3 nM and 2 nM.
Under `CC(Cc1ccccc1)Nc1ncnc2c1ncn2C1OC(CO)C(O)C1O` (configuration not stated) [R-N6-(2-phenylisopropyl) adenosine] stands 2600 nM and 2300 nM and > 10000 nM.
